One compound from patent US20020128256A1, “Methods for the treatment or prevention of inflammatory diseases characterized by abnormal cell proliferation” (priority 1997, published 2002) can be followed below.

The IC50 is the concentration at which inhibition is half-maximal. Low values mean higher potency, high ones lower potency. As a reminder, the inhibition is the relative decrease from the control value, in per cent.

Each structure is given as a SMILES string.

The target of this assay is T1, Gardos channel of erythrocytes (Homo sapiens, UniProt O15554).
T1 construct: endogenous in cells; host or cells: erythrocytes
The assay is described as follows: Gardos Channel Assay. The class given is cell-based.

`O=C1CC(c2ccc(Cl)cc2)(c2ccc(Cl)cc2)c2ccc(Cl)cc21` [Compound 8, 6-Chloro-3,3-di(4-chlorophenyl)indanone] gave an IC50 of 0.176 µM. The inhibition at 10 µM (read-out: Gardos Channel Assay Inhibition (%)) was found to be 30%.
